# Assay results reported in patent US4018930A, “Substituted indolobenzazepines” (Endo Laboratories, Inc., priority 1975, dated 1977).
# Test system: mice
# Assay: Phenylquinone Writhing (P.Q.W.) test, analgesic activity
# Assay type: in vivo, mouse
# Settings: for P.Q.W. ED50 (analgesic ED50): phenyl-p-benzoquinone 2.5 mg/kg ip 30 min after dose, 30-minute count
Structure (SMILES),analgesic activity (in words) (compared to codeine phosphate),"P.Q.W. ED50 (analgesic ED50) (po, mouse) [mg/kg]","analgesic potency relative to codeine phosphate (more potent than codeine phosphate, po, mouse)"
C#CCN1CC[C@@H]2[C@@H](C1)c1cccc3c1N2c1ccccc1CC3 (racemic),analgesic activity compared to codeine phosphate,2,–
C=CCN1CC[C@@H]2[C@@H](C1)c1cccc3c1N2c1ccccc1CC3.Cl (racemic),–,1,about 20 X
